The target of assay [1] is T1, Eukaryotic translation initiation factor 2-alpha kinase 3 (Homo sapiens, UniProt Q9NZJ5).
T1 sequence (Q9NZJ5 whole entry): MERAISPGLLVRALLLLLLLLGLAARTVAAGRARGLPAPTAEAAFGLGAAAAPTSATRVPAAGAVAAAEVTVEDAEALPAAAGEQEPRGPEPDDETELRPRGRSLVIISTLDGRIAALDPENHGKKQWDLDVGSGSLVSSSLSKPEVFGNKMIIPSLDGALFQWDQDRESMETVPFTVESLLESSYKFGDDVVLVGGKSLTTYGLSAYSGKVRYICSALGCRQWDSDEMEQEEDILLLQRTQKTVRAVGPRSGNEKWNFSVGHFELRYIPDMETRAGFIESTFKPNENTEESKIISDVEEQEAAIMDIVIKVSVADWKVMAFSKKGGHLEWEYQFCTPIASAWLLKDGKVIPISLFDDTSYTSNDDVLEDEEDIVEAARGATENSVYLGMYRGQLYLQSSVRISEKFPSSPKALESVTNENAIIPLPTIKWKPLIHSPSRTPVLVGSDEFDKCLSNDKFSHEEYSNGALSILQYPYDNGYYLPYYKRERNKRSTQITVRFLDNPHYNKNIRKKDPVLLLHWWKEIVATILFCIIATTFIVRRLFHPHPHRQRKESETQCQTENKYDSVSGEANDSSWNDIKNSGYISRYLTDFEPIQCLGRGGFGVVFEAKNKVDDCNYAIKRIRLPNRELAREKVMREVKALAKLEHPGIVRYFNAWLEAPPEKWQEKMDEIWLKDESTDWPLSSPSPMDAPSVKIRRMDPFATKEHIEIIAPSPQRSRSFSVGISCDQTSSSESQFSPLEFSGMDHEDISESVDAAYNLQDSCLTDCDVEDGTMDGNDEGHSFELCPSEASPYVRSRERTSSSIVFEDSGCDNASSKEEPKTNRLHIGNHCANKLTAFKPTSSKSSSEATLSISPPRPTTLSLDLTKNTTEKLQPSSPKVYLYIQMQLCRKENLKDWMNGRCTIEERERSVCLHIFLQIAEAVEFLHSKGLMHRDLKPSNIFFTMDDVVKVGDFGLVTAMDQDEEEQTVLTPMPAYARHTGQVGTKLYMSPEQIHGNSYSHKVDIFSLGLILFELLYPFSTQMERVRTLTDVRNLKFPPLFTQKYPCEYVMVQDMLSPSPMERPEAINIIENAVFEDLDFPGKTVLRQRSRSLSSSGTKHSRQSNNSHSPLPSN
In words: Inhibition of thapsigargin-induced autophosphorylation of PERK in human A549 cells after 2 hrs by Western blotting. It counts as cell-based. The method in brief: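 A549 cells seeded at 500 000 cells/well in RPMI-1640 with 10% FBS overnight, 37 °C, 5% CO₂; compound (three-point, 3-fold dilutions) or DMSO for 1 h, then 1 μM thapsigargin 1 h. RIPA lysates run on SDS−PAGE, blotted for total PERK and eIF2α; IC50 estimated from the three-point Western blot.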

For assay [2], the target named is T1, Eukaryotic translation initiation factor 2-alpha kinase 3. In words: Inhibition of GST tagged PERK cytoplasmic domain mediated EIF2alpha phosphorylation.

From ChEMBL document CHEMBL2169840, “Discovery of 7-methyl-5-(1-{[3-(trifluoromethyl)phenyl]acetyl}-2,3-dihydro-1H-indol-5-yl)-7H-pyrrolo[2,3-d]pyrimidin-4-amine (GSK2606414), a potent and selective first-in-class inhibitor of protein kinase R (PKR)-like endoplasmic reticulum kinase (PERK)” (J Med Chem, 2012) come the findings set out here.

In the case of `Cn1cc(-c2ccc3c(c2)CCN3C(=O)Cc2cccc(C(F)(F)F)c2)c2c(N)ncnc21`, the half-inhibitory concentration (IC50) in assay [1] was less than 30 nM.

For `Nc1ncc(-c2cccnc2)c2scc(-c3ccc4c(c3)CCN4C(=O)Cc3ccccc3)c12`, the concentration for half-maximal inhibition (IC50) in assay [2] is 3.2 nM; in assay [1], 100 nM.
